# Measured values published in PubChem BioAssay AID1259374 (The Scripps Research Institute Molecular Screening Center, 2018).
# Chains of the proteins cited; added tags and fusions are not shown.
# UniProt O75030, whole entry: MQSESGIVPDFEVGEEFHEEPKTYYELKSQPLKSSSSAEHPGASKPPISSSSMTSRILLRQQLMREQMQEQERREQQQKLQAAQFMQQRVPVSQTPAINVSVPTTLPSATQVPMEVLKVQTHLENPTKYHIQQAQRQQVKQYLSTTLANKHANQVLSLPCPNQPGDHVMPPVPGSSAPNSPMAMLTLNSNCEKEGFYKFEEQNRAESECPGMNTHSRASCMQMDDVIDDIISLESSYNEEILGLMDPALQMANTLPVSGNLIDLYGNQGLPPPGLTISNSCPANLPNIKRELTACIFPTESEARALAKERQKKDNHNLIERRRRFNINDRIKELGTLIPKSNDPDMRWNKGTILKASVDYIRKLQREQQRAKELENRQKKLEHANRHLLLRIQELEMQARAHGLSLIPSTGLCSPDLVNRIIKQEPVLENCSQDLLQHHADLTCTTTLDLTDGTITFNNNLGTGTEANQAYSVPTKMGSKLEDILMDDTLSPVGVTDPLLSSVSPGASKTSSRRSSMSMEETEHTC
# Only a part is listed here, and it is no random draw. Some of these compounds have results that are not shown, active ones among them. Calls of active or inactive are those of the source. Rule as the data show it: active = inhibition above about 50%; inactive = the rest.
# Target: Microphthalmia-associated transcription factor (Homo sapiens) (UniProt O75030)
# Assay: MITF inhibitors, primary screen, biochemical, AlphaScreen, human (AID 1259374);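 also: 0% = vehicle wells with protein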
# Conditions: AlphaScreen MITF homodimerization, bead proximity signal; at 2.6 µM; active compounds read high
row,Structure (SMILES),inhibition
1,COc1ccc(C(=O)NCC2(N(C)C)CCCCC2)cc1,inactive: 17.8%
2,CC(C)N(CCOC(=O)C(O)(c1ccccc1)c1ccccc1)C(C)C,inactive: 14.2%
3,CC(CCN(C)C)OC(=O)C(O)(c1ccccc1)c1ccccc1 (stereo not given),inactive: -7.16%
4,CN(C)C1(CNC(=O)c2n[nH]c3ccccc23)CCCCC1,inactive: -12%
5,CN(C)C1CCCC1OC(=O)C(O)(c1ccccc1)c1ccccc1 (stereo not given),inactive: -5.84%
6,CN(C)c1ccc(C(=O)NCC2(N(C)C)CCCCC2)cc1,inactive: 16.1%
7,CN1CCCC(COC(=O)C(O)(c2ccccc2)c2ccccc2)C1 (stereo not given),inactive: -11.7%
8,COc1cc(SC)ccc1C(=O)NCC1(N(C)C)CCCCC1,inactive: 7.33%
9,O=C(NCC1(N2CCOCC2)CCCCC1)c1cnc(Cl)c(Cl)c1,inactive: -0.86%
10,CC(C)Oc1ccc(C(=O)NCC2(N(C)C)CCCCC2)cc1,inactive: -6.42%
11,CN(C)c1cccc(C(=O)NCC2(N(C)C)CCCCC2)c1,inactive: -3.25%
12,CN1C2CCC1CC(OC(=O)C(O)(c1ccccc1)c1ccccc1)C2 (stereo not given),inactive: -7.41%
13,CN(C)C1(CNC(=O)c2c(F)cccc2F)CCCCC1,inactive: 3.33%
14,COc1cccc(C(=O)NCC2(N3CCCCC3)CCCCC2)c1,inactive: -1.28%
15,COc1ccc(Cl)cc1C(=O)NCC1(N(C)C)CCCCC1,inactive: 11.3%
